Only a part is listed here, and it is no random draw. Some results for these compounds are left out of this collection, so the calls shown say nothing about other tests. Activity calls are given as the source filed them.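 How the source made its calls: active means ranked among the strongest by inhibition in the single 10 µM screen, a fixed top-ranked set picked for dose follow-up; inactive means the rest, inconclusive results apart.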

In the assay the test system is mevalonate kinase [Streptococcus pneumoniae D39]. Put plainly: S. pneumoniae MK inhibitors, primary screen, biochemical, PK/LDH-coupled NADH absorbance (AID 555). Particulars: purified MK, PK/LDH-coupled NADH absorbance 340 nm; at 10 µM; active compounds read high.
By inhibition is commonly meant how much of the control response was suppressed. `O=C(OC1CN2CCC1CC2)C(CO)(c1ccccc1)c1ccccc1` (configuration not stated): the inhibition is inactive: 6%.

Take `CN(C)c1cccc(C(=O)NCC2(N(C)C)CCCCC2)c1`: the inhibition is inactive: 1%.

The values are drawn from PubChem BioAssay AID555 (SRMLSC, 2006).
